The values that follow are results of earlier work, collected in patent publication US9182414B2, “Methods for identifying a GLP-1 secretagogue” (Arena Pharmaceuticals, Inc., priority 2005, dated 2015).

By UniProt entry, the sequences of proteins in these tests, tags left out.
UniProt P27487, whole entry: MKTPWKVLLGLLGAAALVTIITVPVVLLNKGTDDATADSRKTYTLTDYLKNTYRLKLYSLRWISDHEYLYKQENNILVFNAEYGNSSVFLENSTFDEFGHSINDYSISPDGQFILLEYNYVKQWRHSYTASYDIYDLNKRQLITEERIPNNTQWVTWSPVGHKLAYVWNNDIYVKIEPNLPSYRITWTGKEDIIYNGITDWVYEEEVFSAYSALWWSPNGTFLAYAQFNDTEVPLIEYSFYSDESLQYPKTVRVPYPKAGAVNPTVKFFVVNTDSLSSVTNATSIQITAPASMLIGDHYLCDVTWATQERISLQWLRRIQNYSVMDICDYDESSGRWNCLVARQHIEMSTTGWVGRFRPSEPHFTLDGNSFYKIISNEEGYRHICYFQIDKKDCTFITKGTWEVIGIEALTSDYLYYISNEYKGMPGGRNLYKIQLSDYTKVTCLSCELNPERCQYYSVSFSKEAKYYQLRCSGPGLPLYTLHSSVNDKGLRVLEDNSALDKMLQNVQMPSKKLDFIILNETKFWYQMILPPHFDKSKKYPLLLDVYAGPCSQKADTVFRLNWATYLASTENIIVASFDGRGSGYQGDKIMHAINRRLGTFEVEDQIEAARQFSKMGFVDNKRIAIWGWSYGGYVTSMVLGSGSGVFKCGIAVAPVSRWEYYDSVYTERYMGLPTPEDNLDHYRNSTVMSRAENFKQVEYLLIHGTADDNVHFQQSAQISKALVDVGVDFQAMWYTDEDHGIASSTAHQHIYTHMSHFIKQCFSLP

Data set [1] has as its target T1, DPP-IV (Homo sapiens, UniProt P27487).
Data set [2] concerns the target T1, DPP-IV. The settings on record: in vivo.

“1-[2-[5-cyanopyridin-2-yl)amino]ethylamino]acetyl-2-cyano-(S)-pyrrolidine [NVP-DPP728]”: the “selectivity as DPP-IV inhibitor” value on DPP-IV [1] is “selective DPP-IV inhibitor”. Also, the oral activity result on DPP-IV [2] is “orally active”.
